This is an account of results in PMC8167039, “A Comparative Study of Human and Zebrafish Pregnane X Receptor Activities of Pesticides and Steroids Using In Vitro Reporter Gene Assays” (Frontiers in Endocrinology, 2021).

Amino acid sequences for entries named in this document (tags omitted).
UniProt A5WYG8, entry or part of it: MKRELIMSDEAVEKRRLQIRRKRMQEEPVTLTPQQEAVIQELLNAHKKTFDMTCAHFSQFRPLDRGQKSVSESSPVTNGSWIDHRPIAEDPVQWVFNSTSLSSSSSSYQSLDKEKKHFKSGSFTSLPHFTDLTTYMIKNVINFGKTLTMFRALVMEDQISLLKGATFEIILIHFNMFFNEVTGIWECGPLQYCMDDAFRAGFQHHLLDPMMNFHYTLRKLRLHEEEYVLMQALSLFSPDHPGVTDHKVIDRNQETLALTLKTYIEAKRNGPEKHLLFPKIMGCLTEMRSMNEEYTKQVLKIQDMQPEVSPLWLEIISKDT

The term EC50 denotes the concentration that produces a half-maximal response.

Series [1] concerns the target T1, zfPXR (Danio rerio, UniProt A5WYG8). Description: HG5LN Gal4-zfPXR luciferase reporter gene assay, agonism. It counts as cell-based, zebrafish. The note with it: HG5LN-zfPXR cells, 16h exposure; n.a. = not active. On the procedure: (§1) The cell lines used in this study are listed in Supplementary Table 3 . The HG5LN, HG5LN Gal4-hPXR and HG5LN Gal4-zfPXR cell lines were previously described ([19]). Briefly, HeLa cells stably transfected with the GAL4RE5-βGlobin-Luc-SVNeo plasmid (HG5LN cell line) ([15]). HG5LN cells were stably transfected with the pSG5-GAL4(DBD)-hPXR(LBD)-puro or pSG5-GAL4(DBD)-zfPXR(LBD)-puro plasmids.
(§2) HG5LN cells were cultured in Dulbecco’s Modified Eagle Medium: Nutrient Mixture F-12 (D-MEM/F-12) containing phenol red and 1 g/L glucose and supplemented with 5% fetal bovine serum, 100 units/mL of penicillin and 100 µg/mL of streptomycin supplemented with 1 mg/mL geneticin in a 5% CO2 humidified atmosphere at 37°C. HG5LN GAL4-hPXR and GAL4-zfPXR were cultured in the same culture medium supplemented with 0.5 µg/mL puromycin.
(§3) The ability of chemicals to modulate the hPXR and zfPXR was investigated in HG5LN, HG5LN-hPXR, HG5LN-zfPXR, and ZFL-zfPXR cell lines after exposure to serial dilutions of the compounds and measurement of luciferase activity. […] Briefly, cells were seeded in 96-well white opaque flat bottom microplates at 0.5 10^5 cells per well in culture medium. […] After 5 min, the production of light was assessed in living cells using microplate reader (MicroBeta, PerkinElmer SAS, Courtabœuf, France). […]
(In general: In a reporter assay the amount or activity of a reporter protein is the signal.)

A further series concerns the target T2, hPXR (Homo sapiens, UniProt O75469).
T2 sequence (O75469 146-433 limits assumed): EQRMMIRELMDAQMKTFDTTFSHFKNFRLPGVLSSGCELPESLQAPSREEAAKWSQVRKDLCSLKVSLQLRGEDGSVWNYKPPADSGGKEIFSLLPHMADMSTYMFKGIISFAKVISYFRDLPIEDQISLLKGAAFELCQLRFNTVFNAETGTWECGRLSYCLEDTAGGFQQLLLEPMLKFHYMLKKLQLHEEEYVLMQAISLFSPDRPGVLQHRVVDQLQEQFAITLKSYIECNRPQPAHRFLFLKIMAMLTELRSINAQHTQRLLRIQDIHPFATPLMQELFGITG
How it is done: as §1, §2, §3

The target in series [2] is T1, zfPXR. In words: HG5LN Gal4-zfPXR luciferase reporter gene assay, antagonism (coexposure with clotrimazole). The class given is cell-based, zebrafish. The note with it: read-out: zfPXR antagonism Min. How it is done:
as §1, §2, §3

For series [3], the target named is T1, zfPXR. The note with it: ZFL-zfPXR; minimal activity at 10 µM, coexposure with 0.03 µM clotrimazole; % of maximal induced by 1 µM clotrimazole. On the procedure:
The ability of chemicals to modulate the hPXR and zfPXR was investigated in HG5LN, HG5LN-hPXR, HG5LN-zfPXR, and ZFL-zfPXR cell lines after exposure to serial dilutions of the compounds and measurement of luciferase activity. […] Briefly, cells were seeded in 96-well white opaque flat bottom microplates at 0.5 10^5 cells per well in culture medium. […] Cells were then exposed to a concentration range of the compounds by using an automated workstation (Biomek 3000, Beckman Coulter). The final concentration of DMSO in the well never exceeds 0.1% (v/v). After 16h of exposure, medium was removed and 50 µL of test medium containing 0.3 mM D-luciferin were added per well. After 5 min, the production of light was assessed in living cells using microplate reader (MicroBeta, PerkinElmer SAS, Courtabœuf, France).
In the transactivation assay, each compound was tested at various concentrations in three independent experiments at least. For each experiment, tests were performed in quadruplicates for each concentration, and data are expressed by means values with standard deviations. […] This allowed to determine EC50 and IC50 values of tested chemicals.

As for `CCOP(=S)(OCC)Oc1nc(Cl)c(Cl)cc1Cl` [Chlorpyriphos], the EC50 at zfPXR [1] came to 3000 ± 300 nM.

Turning to `Clc1ccc(COC(Cn2ccnc2)c2ccc(Cl)cc2Cl)cc1` (stereo not shown) [Econazole nitrate, reference compound], on hPXR, the “hPXR agonism Max” value is 51%. Further, at zfPXR [2], the remaining activity at 10 µM amounted to 16%. In addition, the “zfPXR antagonism Min” value on zfPXR [3] was 2%.
